These results are taken from ChEMBL document CHEMBL5108009, “Positron Emission Tomography (PET) Imaging Tracers for Serotonin Receptors” (J Med Chem, 2022).

Chains of the proteins cited; added tags and fusions are not shown.
UniProt P28222, whole entry: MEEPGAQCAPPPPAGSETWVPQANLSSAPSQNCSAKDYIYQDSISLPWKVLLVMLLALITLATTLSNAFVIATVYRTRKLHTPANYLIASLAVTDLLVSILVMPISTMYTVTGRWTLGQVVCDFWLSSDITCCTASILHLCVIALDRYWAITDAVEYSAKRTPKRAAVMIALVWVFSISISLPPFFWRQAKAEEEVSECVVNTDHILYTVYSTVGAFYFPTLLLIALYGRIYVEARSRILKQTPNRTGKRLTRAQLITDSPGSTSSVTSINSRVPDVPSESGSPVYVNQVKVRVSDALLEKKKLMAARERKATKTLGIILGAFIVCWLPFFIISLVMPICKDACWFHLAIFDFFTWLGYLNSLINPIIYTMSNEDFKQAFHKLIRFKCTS

Where only a bound is given, the exact number is not on record here.

This test addresses 5-hydroxytryptamine receptor 1B (Homo sapiens, UniProt P28222).

`CN(C)[C@@H]1CCc2[nH]c3ccc(NC(=O)c4ccc(F)cc4)cc3c2C1`: the inhibition constant Ki (in general, the dissociation constant of the complex between target and ligand, obtained from inhibition or displacement) was over 500 nM.
